Assay results reported in PubChem BioAssay AID651999 (Sanford-Burnham Center for Chemical Genomics, 2013).
This is a selection; strong and weak results do not stand in their true shares. The source made the active and inactive calls.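 Rule for the calls: active = pattern-corrected inhibition above about 35%, with an unprinted fluorescence ratio check between 0.5 and 1.5 (limit read from the data, passing the limit was not always enough); inactive = the rest.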

Protein sequences, listed by entry. Tags and fused reporters are not part of them.
UniProt Q92905, whole entry, looked up: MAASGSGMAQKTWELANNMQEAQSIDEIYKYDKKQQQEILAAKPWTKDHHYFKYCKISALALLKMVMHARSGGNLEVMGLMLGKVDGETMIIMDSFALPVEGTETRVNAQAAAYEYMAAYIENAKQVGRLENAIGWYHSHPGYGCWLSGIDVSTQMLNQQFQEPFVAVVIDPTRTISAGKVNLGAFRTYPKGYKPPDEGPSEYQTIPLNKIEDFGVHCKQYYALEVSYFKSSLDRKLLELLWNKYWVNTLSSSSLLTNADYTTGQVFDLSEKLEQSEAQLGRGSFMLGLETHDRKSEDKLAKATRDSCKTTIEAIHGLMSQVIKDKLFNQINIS

These molecules were tested against COP9 signalosome complex subunit 5 (Homo sapiens) (UniProt Q92905) (assay: CSN5 deneddylase inhibitors on cullin-RING ligase – biochemical, fluorescence polarization, uHTS, primary screen (AID 651999;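 note: 0% = enzyme with substrate and 100% = substrate without enzyme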)). Conditions: Purified CSN, SCF-Nedd8-OG deneddylation, at 12.5 µM, active compounds read high.
Outline: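 Assay system: Purified human Csn5 enzyme expressed in HEK293T cells | Amount: Enzyme 0.24 nM | Measured by: Fluorescence polarization readout | Medium: Tris/NaCl/DTT buffer, pH 7.5 | Compound dosing: One concentration, 12.5 µM, 0.25% DMSO | Times: 90 min incubation of compound, enzyme and substrate at room temperature | Control set: no-enzyme wells high, enzyme-with-substrate wells low | Read-out: % inhibition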

Compound	inhibition
Nc1cccc2ccc([As](=O)(O)O)cc12	inactive: -32%
CCN(N=Nc1nonc1N)c1nonc1N	inactive: 1.46%
O=P(Nc1nc2ccc(Cl)cc2s1)(c1ccccc1)c1ccccc1	inactive: 0.13%
CN(C)P(=O)(N(C)C)n1c(Nc2ccccc2)nnc1-c1ccccc1	inactive: 1.69%
CC(=O)Nc1ccc([As](=O)(O)O)cc1	inactive: -0.02%
O=C(O)c1ccccc1[As](=O)(O)O	inactive: -2.44%
CCCC1OP(N)(=O)OCC1CC (stereo not given)	inactive: -5.31%
Cc1cc(SC(NC(=O)c2ccc(F)cc2)C(Cl)(Cl)Cl)ncn1 (stereo not given)	inactive: 2.17%
CCOP(=O)(Nc1ccccc1)OCC	inactive: 0.5%
Cc1ccc(NP(=O)(Oc2ccccc2F)Oc2ccccc2F)nc1	inactive: -3.55%
CN(C(=O)Cc1ccc(Cl)c(Cl)c1)[C@H]1CCCC[C@@H]1N1CCCC1	inactive: -6.42%
Oc1ccccc1CNc1ccccn1	inactive: 1.86%
O=C(NC(Sc1ccncn1)C(Cl)(Cl)Cl)c1ccccc1 (stereo not given)	inactive: 4.55%
Nc1cc(N)c2nonc2c1[N+](=O)[O-]	inactive: 4.81%
CC(C)CC(=O)NC(Sc1ccc(Cl)cc1)C(Cl)(Cl)Cl (stereo not given)	inactive: 3.57%
O=[N+]([O-])C1C(O)C(O)C([N+](=O)[O-])C(O)C1O (stereo not given)	inactive: -2.79%
CN(C(=O)Cc1ccc(Cl)c(Cl)c1)[C@H]1CCCC[C@H]1N1CCCC1	inactive: -1.53%
Cc1ccc(N/C(=N/P(=O)(N2CCOCC2)N2CCOCC2)N2CCOCC2)cc1	inactive: -5.47%
NC(=O)c1cc([N+](=O)[O-])cc([N+](=O)[O-])c1N	inactive: -1.98%
CN1CCCC(OC(=O)C(c2ccccc2)c2ccccc2)C1 (stereo not given)	inactive: -3.81%
Clc1ccc(Cl)c(NC2=NCC(CBr)S2)c1 (stereo not given)	inactive: -24.6%
COc1ccccc1OP(=O)(Nc1ccc(C)cn1)Oc1ccccc1OC	inactive: 3.47%
Cc1ccc(OP(=O)(Nc2nccs2)Oc2ccc(C)cc2)cc1	inactive: -6.31%
CCN(/C(=N/P(=O)(N1CCOCC1)N1CCOCC1)N1CCOCC1)c1ccc(OC)cc1	inactive: 3.42%
Nc1ccc([As](=O)(O)c2ccc(N)cc2)cc1	inactive: -4.19%

Compound	inhibition
C[N+]1=C2C=CC=CC=C2SC12C([N+](=O)[O-])=CC([N+](=O)[O-])=C[C-]2[N+](=O)[O-] (stereo not given)	inactive: 48.6%
CC1CCN(C(=O)Oc2c(Cl)cc(Cl)c3cccnc23)CC1	inactive: -3.9%
c1cc(-c2nn[nH]n2)ccc1-c1nn[nH]n1	inactive: -6.42%
CC(C)c1nc(Nc2ccccc2)n(P(=O)(N(C)C)N(C)C)n1	inactive: 3.17%
CC(C)=N/N=C(\N)N[N+](=O)[O-]	inactive: 4.86%
CN(C)C(=O)OCCc1n(C)cc[n+]1C	inactive: 2.74%
COc1ccc(C2=NCC(CBr)S2)cc1 (stereo not given)	inactive: -1.65%
Cc1ccc(NP(=O)(Oc2ccccc2)Oc2ccccc2)nc1	inactive: 8.21%
CCc1nc2c(n1)c1c(non1O)c1c2no[n+]1[O-]	inactive: 3.42%
O=[N+]([O-])c1cc([N+](=O)[O-])c(CCNc2ccccc2)c([N+](=O)[O-])c1	inactive: -2.64%
O=[N+]([O-])c1cccc2n[nH]nc12	inactive: -0.42%
CC(=O)N1C2C3N(C(C)=O)C1C1N(C(C)=O)C(C(N1C(C)=O)N3C(C)=O)N2C(C)=O	inactive: -5.55%
O=[N+]([O-])c1ncn(CCn2ncnc2[N+](=O)[O-])n1	inactive: 5%
CC(C)(C)C(=O)NC(Sc1ccncn1)C(Cl)(Cl)Cl (stereo not given)	inactive: 2%
O=C(O)CNc1ccc([As](=O)(O)O)cc1	inactive: 2.41%
COC(=O)C1(C)COP(=O)(Nc2ccccc2)OC1 (stereo not given)	inactive: 6.55%
O=[N+]([O-])c1cccc(NC2=NCC(CBr)S2)c1 (stereo not given)	inactive: -1.52%
O=P1(N(CCCl)CCCl)OCCCS1 (stereo not given)	inactive: 0.71%
O=C(Nc1cc([As](=O)(O)O)ccc1O)c1ccccc1	inactive: 0.67%
O=[As](O)(c1ccccc1)c1ccc(O)cc1	inactive: 4.31%
O=[N+]([O-])c1ccc(O)c(/C=N/Nc2ccc([N+](=O)[O-])cc2[N+](=O)[O-])c1	inactive: 0.07%
O=[N+]([O-])c1ncn(CCn2cnc([N+](=O)[O-])n2)n1	inactive: 1.4%
CC(=O)NC(SC(=S)N(C)C)C(Cl)(Cl)Cl (stereo not given)	inactive: -14.2%
O=C(OC1CN2CCC1CC2)c1cccc(Cl)c1 (stereo not given)	inactive: 4.13%
C(Cc1nn[nH]n1)Cc1nn[nH]n1	inactive: -8.59%

Compound	inhibition
Nc1ccc([As](=O)(O)c2ccc([N+](=O)[O-])cc2)cc1	inactive: -3.07%
O=P(Nc1ccccn1)(c1ccc(Br)cc1)c1ccc(Br)cc1	inactive: 2.93%
CN(C)C1(CNC(=O)c2ccc(Cl)c(S(N)(=O)=O)c2)CCCCC1	inactive: -2.3%
COc1ccc(N)c([N+](=O)[O-])c1[N+](=O)[O-]	inactive: 8.26%
Nc1ccc(CCCCOc2ccccc2)cc1	inactive: 3.63%
O=P(Nc1nc2ccccc2s1)(c1ccccc1)c1ccccc1	inactive: 2.49%
C[C@H]1OP(=O)(Oc2ccccc2)[C@H](O)[C@H](O)[C@H]1N=[N+]=[N-] (stereo not given in full)	inactive: 0.12%
CC(C)C(=O)NC(Sc1ccccc1)C(Cl)(Cl)Cl (stereo not given)	inactive: 2.04%
O=P(Nc1nccs1)(c1ccccc1)c1ccccc1	inactive: -0.27%
c1nnnn1CCn1cnnn1	inactive: -3.15%
Cc1ccccc1CN(C)C(=O)COC(=O)C(O)(c1ccccc1)c1ccccc1	inactive: 2.61%
C[C@H]1OP(=O)(Oc2ccccc2)C[C@@H]2O[C@@H]21 (stereo not given in full)	inactive: 0.07%
C[C@@H]1C=CCP(=O)(Oc2ccccc2)O1 (stereo not given in full)	inactive: -0.15%
CC(=O)c1ccc(N2CC2c2ccncc2)cc1 (stereo not given)	inactive: 0.28%
N#C/C(=C\c1ccc(N(CCBr)CCBr)cc1)C(N)=O	inactive: -1.78%
COC(=O)C1(C)COP(=O)(NCc2ccccc2)OC1 (stereo not given)	inactive: 0.9%
CC(=O)Nc1ccc([As](=O)(O)O)c(O)c1	inactive: 0.96%
CC(=O)Nc1ccc(Oc2c([N+](=O)[O-])cc([N+](=O)[O-])cc2[N+](=O)[O-])cc1	inactive: 3.59%
O=P1(Nc2nc3ccc(Cl)cc3s2)COc2ccccc2O1 (stereo not given)	inactive: -0.5%
CCOc1ccc(C2=NCC(CBr)S2)cc1 (stereo not given)	inactive: 5.12%
CC(C)(C)C(=O)NC(Sc1ccccc1)C(Cl)(Cl)Cl (stereo not given)	inactive: -1.49%
CCc1cc(O)c([N+](=O)[O-])c(C)c1[N+](=O)[O-]	inactive: -2.62%
O=C(OC1CN2CCC1CC2)c1ccccc1 (stereo not given)	inactive: 1.04%
CCC(=O)N1C2C3N(C(=O)CC)C1C1N(C(=O)CC)C(C(N1C(=O)CC)N3C(=O)CC)N2C(=O)CC	inactive: -0.35%
COC(=O)c1cc2c(s1)N=C(c1ccccc1)N(C)P2(=O)N1CCOCC1 (stereo not given)	inactive: -0.88%

Compound	inhibition
Cc1ccc(OP(=O)(Nc2ccccn2)Oc2ccc(C)cc2)cc1	inactive: -5.26%
CC(=O)NC(SC(=S)N(CC(C)C)CC(C)C)C(Cl)(Cl)Cl (stereo not given)	inactive: -0.58%
CC(NC(=O)COC(=O)C(O)(c1ccccc1)c1ccccc1)c1ccccc1 (stereo not given)	inactive: -2.75%
Cc1ccccc1OP(=O)(Nc1ccccn1)Oc1ccccc1C	inactive: 0.21%
O=c1c2cc([N+](=O)[O-])ccc2[nH]c2c([N+](=O)[O-])cc([N+](=O)[O-])cc12	inactive: 8.92%
CN(C)C(=O)Oc1noc2ccccc12	inactive: 2.02%
c1ccc(-c2nn[nH]n2)c(-c2nn[nH]n2)c1	inactive: -12.8%
Cc1ccc(NP(=O)(Oc2cccc(C)c2)Oc2cccc(C)c2)nc1	inactive: -2.08%
CCNC(=S)/N=C(\N)N[N+](=O)[O-]	inactive: 2.63%
O=C(NC1CCS(=O)(=O)C1)NP(=S)(Oc1ccccc1)Oc1ccccc1 (stereo not given)	inactive: -15.2%
O=P1(N(CCCl)CCCl)OCCC2CCCCN21 (stereo not given)	inactive: -1.18%
NC(=O)Nc1ccc([As](=O)(O)O)cc1	inactive: 0.87%
N#CCCN(C(=O)COC(=O)C(O)(c1ccccc1)c1ccccc1)c1ccc(F)cc1	inactive: 1.82%
CN(C(=O)Cc1ccccc1)[C@@H]1CC[C@]2(CCCO2)C[C@H]1N1CCCC1	inactive: 0.88%
CCOP1(=S)c2c(C)nn(CCC#N)c2N=C(c2ccc(F)cc2)N1C (stereo not given)	inactive: 4.36%
O=[N+]([O-])c1ccc2c(c1)nnn2O	inactive: -6.46%
CN(C)C(=O)c1cc([N+](=O)[O-])cc2c1-c1c(cc([N+](=O)[O-])cc1[N+](=O)[O-])C2=O	inactive: -1.18%
CN(C(=O)Cc1ccc(Cl)c(Cl)c1)[C@H]1CC[C@@]2(CCCO2)C[C@@H]1N1CCCC1	inactive: 0.05%
CCOP1(=S)c2c(C)nn(CCC#N)c2N=C(c2ccccc2F)N1C (stereo not given)	inactive: 0.77%
O=P(Nc1nccs1)(Oc1ccccc1)Oc1ccccc1	inactive: 5.1%
O=P(Nc1nccs1)(c1ccccc1)c1nc2ccccc2s1 (stereo not given)	inactive: 7.55%
CS(=O)(=O)c1cc([N+](=O)[O-])c2no[n+]([O-])c2c1	inactive: -4.21%
Nc1ccccc1[As](=O)(O)c1ccccc1	inactive: -1.84%
O=C(O)COc1ccc([As](=O)(O)O)cc1[N+](=O)[O-]	inactive: -1.14%
Nc1cccc2c([As](=O)(O)O)cccc12	inactive: 2.53%
